OPERA 2.9 data: melting point values

Values as listed in the OPERA 2.9 repository of K. Mansouri.

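OPERA's authors assembled the values from existing databases and did not measure them anew. The files give a single number for a compound and property, which may rest on several reports. Method and conditions are not stated for these values. Where a salt, mixture or single isomer is drawn, the source does not say that exactly this form was tested. Some entries may be limits or estimates that an upstream database listed as plain numbers.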

Melting points are in °C.

The entry for O=c1[nH]c(CCl)nc2sc3c(c12)CCCC3 lists MP 266 °C.
The entry for Cc1ccccc1C(=O)NC1CCNCC1 [2-methyl-N-piperidin-4-ylbenzamide] lists MP 130 °C.
The entry for Cc1cc(C)n2[nH]c(=O)cc2n1 [5,7-dimethylpyrazolo[1,5-a]pyrimidin-2-ol] lists MP 242 °C.
The entry for Nc1ccc(-c2nc3ccccc3[nH]2)cc1 [4-(1H-Benzoimidazol-2-yl)-phenylamine] lists MP 220 °C.
The entry for COc1ccc(S(=O)(=O)NCC(=O)O)cc1 [(4-Methoxy-benzenesulfonylamino)-acetic acid] lists MP 132 °C.
The entry for Cc1ccc(Br)cc1S(N)(=O)=O [5-bromo-2-methylbenzenesulfonamide] lists MP 140 °C.
The entry for N#CCCn1ccnc1 [3-(1H-Imidazol-1-yl)propanenitrile] lists MP -79 °C.
The entry for Fc1ccccc1-n1cn[nH]c1=S [4-(2-fluorophenyl)-4H-1,2,4-triazole-3-thiol] lists MP 168 °C.
The entry for Cn1c(-c2ccccc2)c(C=O)c2ccccc21 [1H-Indole-3-carboxaldehyde, 1-methyl-2-phenyl-] lists MP 126 °C.
The entry for CCSC(N)=O [S-Ethyl carbamothioate] lists MP 109 °C.
The entry for O=C1CNC2(CCCCC2)C(=O)N1 [1,4-diazaspiro[5.5]undecane-3,5-dione] lists MP 185 °C.
The entry for Cc1ccc(-c2nc(N)n[nH]2)cc1 [5-(4-Methylphenyl)-1H-1,2,4-triazol-3-amine] lists MP 207 °C.
The entry for CCCCCCCCC(=O)N(C)C[C@H](O)[C@@H](O)[C@H](O)[C@H](O)CO [1-Deoxy-1-[methyl(nonanoyl)amino]hexitol] lists MP 89.4 °C.
The entry for O=C(O)c1c[nH]c2ccc(Br)cc12 [5-bromo-1H-indole-3-carboxylic acid] lists MP 239 °C.
The entry for COc1ccc(-c2csc(N)n2)cc1F [4-(3-fluoro-4-methoxyphenyl)-1,3-thiazol-2-amine] lists MP 186 °C.
The entry for CCc1ccc(C(=O)O)o1 [5-ethyl-2-furoic acid] lists MP 90 °C.
The entry for CC1CCc2sc(C(=O)O)cc2C1 (centres undefined) lists MP 134 °C.
The entry for O=[N+]([O-])c1sccc1Br [3-bromo-2-nitrothiophene] lists MP 81 °C.
The entry for Cc1cc(C=O)c(C)n1-c1cccc([N+](=O)[O-])c1 [2,5-Dimethyl-1-(3-nitrophenyl)-1H-pyrrole-3-carbaldehyde] lists MP 150 °C.
The entry for Cc1ccccc1-n1c(-c2ccncc2)n[nH]c1=S [5-Pyridin-4-yl-4-o-tolyl-4H-[1,2,4]triazole-3-thiol] lists MP 281 °C.
The entry for CSCC[C@@H](NC(=O)OC(C)(C)C)C(=O)O [N-(tert-Butyloxycarbonyl)-D-methionine] lists MP 48.5 °C.
The entry for Cc1ccc(N2C(=O)CSC2=S)cc1 [Rhodanine, 3-(p-tolyl)-] lists MP 169 °C.
The entry for O=C(O)C1CC(=O)N(c2ccccc2)C1 (centres undefined) [5-oxo-1-phenylpyrrolidine-3-carboxylic acid] lists MP 192 °C.
The entry for CCN(CC)S(=O)(=O)c1ccc(Cl)nc1 [6-Chloro-N,N-diethylpyridine-3-sulfonamide] lists MP 83 °C.
The entry for Nc1cccc(S(=O)(=O)Nc2cccc(Cl)c2)c1 [3-Amino-N-(3-chlorophenyl)benzene-1-sulfonamide] lists MP 108 °C.
The entry for COCc1cccc(C(=O)O)c1 [3-(methoxymethyl)benzoic Acid] lists MP 65 °C.
The entry for CCOc1ccc(C(=O)O)cc1OC [4-Ethoxy-m-anisic acid] lists MP 200 °C.
The entry for NNC(=O)COc1ccccc1F [2-(2-fluorophenoxy)acetohydrazide] lists MP 110 °C.
The entry for O=Cc1cccc(C(F)(F)F)c1 [alpha,alpha,alpha-Trifluoro-m-tolualdehyde] lists MP -6.21 °C.
The entry for CC(=O)CC(=O)Nc1ccc(C)c(Cl)c1 [N-(3-chloro-4-methylphenyl)-3-oxobutanamide] lists MP 109 °C.
The entry for NNC(=O)CNc1ccccc1F [2-(2-Fluoroanilino)acetohydrazide (non-preferred name)] lists MP 100 °C.
The entry for O=[N+]([O-])c1cc(CCl)c2c(c1)COCO2 [8-Chloromethyl-6-nitro-4H-benzo[1,3]dioxine] lists MP 95 °C.
The entry for CC(OC(=O)ON1C(=O)CCC1=O)OC(=O)C(C)C (centres undefined) lists MP 58.5 °C.
The entry for Nc1cc(Cl)ccc1-n1cncn1 [5-chloro-2-(1H-1,2,4-triazol-1-yl)aniline] lists MP 95 °C.

The first 4 entries again:

{"smiles": "O=c1[nH]c(CCl)nc2sc3c(c12)CCCC3", "MP (°C)": "266"}
{"smiles": "Cc1ccccc1C(=O)NC1CCNCC1", "name": "2-methyl-N-piperidin-4-ylbenzamide", "MP (°C)": "130"}
{"smiles": "Cc1cc(C)n2[nH]c(=O)cc2n1", "name": "5,7-dimethylpyrazolo[1,5-a]pyrimidin-2-ol", "MP (°C)": "242"}
{"smiles": "Nc1ccc(-c2nc3ccccc3[nH]2)cc1", "name": "4-(1H-Benzoimidazol-2-yl)-phenylamine", "MP (°C)": "220"}